Assay results as given in patent publication US20230151340A1, “PLASTIC DEGRADING FUSION PROTEINS AND METHODS OF USING THE SAME” (Alliance for Sustainable Energy, LLC, priority 2020, published 2023).

Substrate: O=C(O)c1ccc(C(=O)OCCO)cc1
Assay: Michaelis-Menten kinetics of MHETase and variants (substrate inhibition model)
Type: biochemical, Ideonella sakaiensis 201-F6
Conditions: other: MHET 10-250 μM, 5 nM enzyme, pH 7.5, 30° C.

B1: Ideonella sakaiensis 201-F6 MHETase (Is MHETase) variant S131G (parent Genbank GAP38911.1), C-terminal His tag (Pseudideonella sakaiensis; S131G) (protein)
chain: CAGGGSTPLPLPQQQPPQQEPPPPPVPLASRAACEALKDGNGDMVWPNAATVVEVAAWRDAAPATASAAALPEHCEVSGAIAKRTGIDGYPYEIKFRLRMPAEWNGRFFMEGGGGTNGSLSAATGSIGGGQIASALSRNFATIATDGGHDNAVNDNPDALGTVAFGLDPQARLDMGYNSYDQVTQAGKAAVARFYGRAADKSYFIGCSEGGREGMMLSQRFPSHYDGIVAGAPGYQLPKAGISGAWTTQSLAPAAVGLDAQGVPLINKSFSDADLHLLSQAILGTCDALDGLADGIVDNYRACQAAFDPATAANPANGQALQCVGAKTADCLSPVQVTAIKRAMAGPVNSAGTPLYNRWAWDAGMSGLSGTTYNQGWRSWWLGSFNSSANNAQRVSGFSARSWLVDFATPPEPMPMTQVAARMMKFDFDIDPLKIWATSGQFTQSSMDWHGATSTDLAAFRDRGGKMILYHGMSDAAFSALDTADYYERLGAAMPGAAGFARLFLVPGMNHCSGGPGTDRFDMLTPLVAWVERGEAPDQISAWSGTPGYFGVAARTRPLCPYPQIARYKGSGDINTEANFACAAPP
**Q.** How did the Km turn out when B1 was run?
**A.** The Km was 995.10 ± 19.58 µM.

**Q.** And the Vmax?
**A.** The Vmax was 27.3 µM/min.

**Q.** What about the kcat/Km of the same protein?
**A.** The kcat/Km was 90000 M⁻¹ s⁻¹.
